Experimental data: paper PMC10795032 (ACS Omega, 2024)

Test system: pEGFR
Experiment: Western blot, EGF-stimulated phosphorylation of EGFR
Conditions: U87-MG, 5 μM, 24 h, then EGF 50 ng/mL 15 min

In the case of COc1cc2ncnc(Nc3ccc(F)c(Cl)c3)c2cc1OCCCN1CCOCC1 [Gefitinib], the pEGFR expression is reported as “significantly downregulated”.
